Experimental data: patent US20100210694A1, “NEW NO-DONOR ASPIRIN DERIVATIVES” (NICOX S.A., priority 2007, published 2010)
Like-named read-outs stand apart in the source and are kept apart here.

System: human platelets
Assay: Inhibition of platelet aggregation in vitro
Assay type: cell-based
Description: Platelet rich plasma (PRP) is prepared by centrifugation of citrated blood at 200 g for 20 minutes. […] Collagen (1.0 μg/mL) is used as platelet activator in PRP. The inhibitory activity of the compounds is tested by addition of drug to PRP 10 or 30 min before addition of the stimulus.
The antiaggregatory activity of the compounds of the invention is evaluated as % inhibition of platelet aggregation compared to control samples.

Compound `CC(=O)Oc1ccccc1C(=O)O` [Aspirin] has an IC50 (read-out: Platelet Aggregation IC50 (collagen 95%) 10 min) of 59 µM and an IC50 (read-out: Platelet Aggregation IC50 (collagen 95%) 30 min) of 21 µM.
